From US20220175771A1, “CANCER TREATMENT MODALITIES” (priority 2017, published 2022)

System: SMARCA2/SMARCA4 dual-loss lung cancer cell lines
Settings: in vitro, 14 days of treatment; compared with lung cancer cell lines with other SWI/SNF aberrations

With CCN(c1cc(-c2ccc(CN3CCOCC3)cc2)cc(C(=O)NCc2c(C)cc(C)[nH]c2=O)c1C)C1CCOCC1 [Compound 44, tazemetostat] the “sensitivity to EZH2 inhibition (cell proliferation)” value was “more sensitive”.
